These results are taken from patent US20150173847A1, “IMAGING MARKER AND UTILIZATION THEREOF” (priority 2012, published 2015).

Data set [1] is described as follows: Density of the aqueous solutions calculated from the weight of 2 mL in a tube. Format: physicochemical. The following applies: aqueous solution that exhibited maximum MRI contrast.
Data set [2] can be described thus: T1 and T2 relaxivity measurement by spin echo MRI at varying concentrations. Format: physicochemical. The following applies: aqueous solution, 22° C.

With Manganese dichloride [Mn (MnCl2)], the Density in data set [1] was 1.0 g/mL. In addition, the “r1 (T1 relaxivity)” value in data set [2] was 5.5 mM⁻¹ s⁻¹.
As to lithium heterotungstate [W (LST)], the Density in data set [1] is on record as 2.9 g/mL. The “r1 (T1 relaxivity)” value in data set [2] and in data set [2] (listed as LST) was 9.2e-05 mM⁻¹ s⁻¹ each time.
